# Data as given in PubChem BioAssay AID493216 (National Center for Advancing Translational Sciences (NCATS), 2011).
# Chains of the proteins cited; added tags and fusions are not shown. Lines headed by an entry give the natural chain unless they say otherwise; changes in a name come on top.
# UniProt P18054: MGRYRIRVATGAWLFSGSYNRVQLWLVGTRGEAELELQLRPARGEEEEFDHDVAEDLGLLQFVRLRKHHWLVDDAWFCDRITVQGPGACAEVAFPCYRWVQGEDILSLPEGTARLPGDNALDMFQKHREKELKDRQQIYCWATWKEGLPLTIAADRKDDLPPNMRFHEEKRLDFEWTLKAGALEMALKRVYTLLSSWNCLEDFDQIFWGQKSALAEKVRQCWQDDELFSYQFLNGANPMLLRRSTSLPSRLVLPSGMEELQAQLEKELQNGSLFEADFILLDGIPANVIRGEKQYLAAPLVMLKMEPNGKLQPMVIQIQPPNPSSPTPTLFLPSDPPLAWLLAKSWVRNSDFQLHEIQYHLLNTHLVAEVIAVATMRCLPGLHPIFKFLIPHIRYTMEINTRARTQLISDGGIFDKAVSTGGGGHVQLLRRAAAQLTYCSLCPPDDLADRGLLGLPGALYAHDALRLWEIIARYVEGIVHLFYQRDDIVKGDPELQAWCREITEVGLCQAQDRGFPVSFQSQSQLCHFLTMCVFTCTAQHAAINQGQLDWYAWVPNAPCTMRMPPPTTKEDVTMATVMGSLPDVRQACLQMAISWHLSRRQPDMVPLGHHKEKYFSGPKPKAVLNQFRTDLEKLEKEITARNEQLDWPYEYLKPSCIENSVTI
# The hits were mostly taken out for another list; the other results follow. Activity calls are given as the source filed them. The call rests on the fitted dose curve.
# Biological target: Polyunsaturated fatty acid lipoxygenase ALOX12 (Homo sapiens) (UniProt P18054)
# Assay: Inhibitors of 12-hLO (12-human lipoxygenase): Cuvette-Based Hit Assay for Validation of Followup Compounds
# Conditions: purified 12-hLO, cuvette absorbance 234 nm
# Method: The enzyme activity of 12-hLO was determined by a direct measurement of product formation by monitoring the absorbance at 234 nm in a 2 mL cuvette. IC50 values of inhibitors were obtained by measuring the enzymatic rate at a variety of concentrations (Carroll et al, Segraves et al). This assay was used to validate actives or inconclusive putative inhibitors identified in the primary screen (see related BioAssay AIDs). Assay Provider: Holman, T.R., University of California, Santa Cruz Screening Center PI: Austin, Christopher P. Screening Center: NIH Chemical Genomics Center
# For control experiments, 2 mL of substrate buffer (10 uM arachidonic acid / 25 mM HEPES / 0.01% (v/v) Triton X-100, pH 8.0) was aliquoted in a cuvette with a magnetic stir bar. After equilibrium was ensured, an aliquot of inhibitor solvent was added (DMSO), and equilibrium was once again assured. The reaction was started by adding enzyme to the cuvette and the reaction was followed until completed. The inhibition experiments were performed as above, except the actual inhibitory compound was added instead of vehicle. To achieve an IC50, typically 5 concentrations of the inhibitor were studied. If the inhibitor concentration was constant, then five different reaction volumes were used. […] 3; No change in absorbance ensured. […] 5; No change in absorbance ensured. […]
smiles,measurement,value
COc1cccc(CNc2ccc(S(=O)(=O)Nc3nccs3)cc2)c1O,Potency,active: 4.71 µM
